SMILES strings stand for the structures.

For the assay, the target named is Alpha-2C adrenergic receptor.
With `Cc1ccc(N(CC2=NCCN2)c2cccc(O)c2)cc1` [SMR000059054], affinity was put at a Ki of 9.7 nM.

Compound `Cc1cc(C(C)(C)C)c(O)c(C)c1CC1=NCCN1` [SMR000059324] displayed a Ki of 31 nM.

In the case of `CN(C)CCCN1c2ccccc2Sc2ccc(Cl)cc21` [[3-(2-Chloro-phenothiazin-10-yl)-propyl]-dimethyl-amine(Chlorpromazine)], the Ki is 37 nM. This Ki and that of the compound before are within 1.5-fold of each other.

Broadly, the Ki is a dissociation constant, usually derived from enzyme kinetics or from competition with a known ligand. Low values mean tighter binding, high ones weaker binding.

Source of the values: BindingDB's records for PubMed 1656026 (University of Nebraska, 1991).
